Patent US20180185467A1 (Harvard, published 2018)

Tests used:
FLAG-14-3-3ε = molecular target: T1, FLAG-14-3-3ε (UniProt P62258 1-255); test: GST pull-down in 293T cells, immunoblot
T1 construct: Expressed in 293T cells; also called FLAG-tagged 14-3-3ε; not shown: N-terminal FLAG tag (pEF-BOS vector)
T1 sequence: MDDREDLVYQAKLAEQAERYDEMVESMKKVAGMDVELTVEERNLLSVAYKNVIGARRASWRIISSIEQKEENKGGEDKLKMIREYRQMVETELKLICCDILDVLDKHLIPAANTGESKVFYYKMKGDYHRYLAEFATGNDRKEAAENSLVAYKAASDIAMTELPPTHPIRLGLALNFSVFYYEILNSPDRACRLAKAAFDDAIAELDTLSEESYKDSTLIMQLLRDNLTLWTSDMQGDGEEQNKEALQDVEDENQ

[1] = molecular target: T2, bacterially-purified recombinant human 14-3-3ε protein (NP_006752.1) (human, UniProt P62258 1-255); test: in vitro binding assay on glutathione beads, immunoblot
T2 construct: also called recombinant (r) 14-3-3ε; r14-3-3ε
T2 sequence: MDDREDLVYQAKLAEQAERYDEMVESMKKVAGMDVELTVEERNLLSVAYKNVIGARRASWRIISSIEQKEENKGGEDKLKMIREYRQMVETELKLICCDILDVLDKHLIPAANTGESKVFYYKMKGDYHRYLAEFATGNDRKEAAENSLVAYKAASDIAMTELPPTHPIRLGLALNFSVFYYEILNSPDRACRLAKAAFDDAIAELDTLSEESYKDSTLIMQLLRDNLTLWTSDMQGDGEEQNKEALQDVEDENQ

B1: GST (Glutathione S-transferase alone) (other)
chain: MSPILGYWKIKGLVQPTRLLLEYLEEKYEEHLYERDEGDKWRNKKFELGLEFPNLPYYIDGDVKLTQSMAIIRYIADKHNMLGGCPKERAEISMLEGAVLDIRYGVSRIAYSKDFETLKVDFLSKLPEMLKMFEDRLCHKTYLNGDHVTHPDFMLYDALDVVLYMDPMCLDAFPKLVCFKKRIEAIPQIDKYLKSSKYIAWPLQGWQATFGGGDHPPK
notes: Control; also called GST alone
Q: Which results are given for B1?
A: binding result (FLAG-14-3-3ε): no binding; binding result [1]: no binding (tested: 10 µg/ml)
